From US20200010482A1, “INHIBITORS OF BETA SECRETASE” (Janssen Pharmaceutica NV, priority 2017, published 2020)

Protein sequences, listed by entry. Tags and fused reporters are not part of them. Residues count along the entry.
UniProt P56817, 46-501 limits assumed: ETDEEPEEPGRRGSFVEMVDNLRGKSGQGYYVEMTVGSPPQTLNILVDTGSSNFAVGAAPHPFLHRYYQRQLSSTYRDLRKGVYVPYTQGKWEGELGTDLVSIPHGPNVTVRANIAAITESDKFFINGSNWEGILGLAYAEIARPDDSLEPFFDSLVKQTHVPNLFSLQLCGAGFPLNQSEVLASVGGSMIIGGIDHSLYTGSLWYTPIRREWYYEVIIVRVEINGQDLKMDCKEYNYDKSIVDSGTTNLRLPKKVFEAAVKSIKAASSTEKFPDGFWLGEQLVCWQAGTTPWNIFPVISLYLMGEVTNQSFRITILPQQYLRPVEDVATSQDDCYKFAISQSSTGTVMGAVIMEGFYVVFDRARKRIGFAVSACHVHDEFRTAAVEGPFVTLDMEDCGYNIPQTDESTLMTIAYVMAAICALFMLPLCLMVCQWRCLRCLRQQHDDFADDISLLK
UniProt Q9Y5Z0, 63-518 limits assumed: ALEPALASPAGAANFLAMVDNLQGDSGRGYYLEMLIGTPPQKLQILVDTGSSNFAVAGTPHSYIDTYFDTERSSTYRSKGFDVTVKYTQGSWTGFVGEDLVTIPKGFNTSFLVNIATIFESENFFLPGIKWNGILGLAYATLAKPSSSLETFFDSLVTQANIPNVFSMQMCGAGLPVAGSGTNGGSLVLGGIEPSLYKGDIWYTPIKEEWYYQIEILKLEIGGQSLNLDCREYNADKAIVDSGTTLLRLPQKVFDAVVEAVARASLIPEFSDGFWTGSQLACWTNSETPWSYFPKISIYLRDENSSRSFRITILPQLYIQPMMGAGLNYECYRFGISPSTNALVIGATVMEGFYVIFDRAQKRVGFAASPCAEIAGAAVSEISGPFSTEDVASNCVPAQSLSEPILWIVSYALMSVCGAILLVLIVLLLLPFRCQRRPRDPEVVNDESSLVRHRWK

Assays:
BACE1 = BACE1 (Homo sapiens, UniProt P56817); assay: BACE1 biochemical FRET based assay; conditions: recombinant BACE1 0.04 μg/ml, 20 μM substrate, 450 min, pH 5.0
Source text: This assay is a Fluorescence Resonance Energy Transfer Assay (FRET) based assay. The substrate for this assay is an APP derived 13 amino acids peptide that contains the ‘Swedish’ Lys-Met/Asn-Leu mutation of the amyloid precursor protein (APP) beta-secretase cleavage site. This substrate also contains two fluorophores: (7-methoxycoumarin-4-yl) acetic acid (Mca) is a fluorescent donor with excitation wavelength at 320 nm and emission at 405 nm and 2,4-Dinitrophenyl (Dnp) is a proprietary quencher acceptor. […] Upon cleavage by BACE1, the fluorophore Mca is separated from the quenching group Dnp, restoring the full fluorescence yield of the donor. The increase in fluorescence is linearly related to the rate of proteolysis.
Briefly in a 384-well format recombinant BACE1 protein in a final concentration of 0.04 μg/ml is incubated for 450 minutes at room temperature with 20 μM substrate in incubation buffer (50 mM Citrate buffer pH 5.0, 0.05% PEG) in the presence of compound or DMSO. Next the amount of proteolysis is directly measured by fluorescence measurement (excitation at 320 nm and emission at 405 nm) at different incubation times (0, 30, 60, 90, 120 and 450 min). For every experiment a time curve (every 30 min between 0 min and 120 min) is used to determine the time where we find the lowest basal signal of the high control. The signal at this time (Tx) is used to subtract from the signal at 450 min. Results are expressed in RFU, as difference between T450 and Tx.
A best-fit curve is fitted by a minimum sum of squares method to the plot of % Controlmin versus compound concentration. From this an IC50 value (inhibitory concentration causing 50% inhibition of activity) can be obtained. • LC=Median of the low control values=Low control: Reaction without enzyme • HC=Median of the High control values=High Control: Reaction with enzyme
% Effect=100−[(sample−LC)/(HC−LC)*100]
% Control=(sample/HC)*100
% Controlmin=(sample−LC)/(HC−LC)*100

β-secretase II (BACE2) = β-secretase II (BACE2) (Homo sapiens, UniProt Q9Y5Z0); assay: Biochemical assay, automated (CyclOps), BACE2; conditions: automated CyclOps bioassay
Description: Unless otherwise indicated all biochemicals were purchased from Sigma-Aldrich Chemical Company, Poole, Dorset, U.K. and non-aqueous solvents, of analytical or higher grade, were purchased from ThermoFisher Scientific, Loughborough, U.K. MilliQ water (Elix 5 & MilliQ Gradient; Merck Millipore) was used as the base aqueous solvent to make up the biological buffers. Base assay buffer was prepared by adding a 50 mM solution of citric acid (1.00244; Merck Biosciences) to stirring solution of 50 mM trisodium citrate (1.06448; Merck Biosciences) until a final pH of 5.0 was achieved. […] All assays were routinely carried out in 384-well assay plates (Costar 4514; Corning Life Sciences) and incubated at 37±1° C. for 60 min. prior to reading the endpoint fluorescence intensity. The (7-methoxyl coumarin-4-yl)acetic acid based substrate β-secretase substrate VI (M2465; Bachem) was prepared as a 1 mM stock in 100% DMSO (D/4121/PB08; ThermoFisher). Assay buffer was prepared by adding DMSO to base buffer to a final concentration of 1% (vol./vol.). β-secretase I (18.64 μM; “BACE1”) and β-secretase II (4.65 μM; “BACE2”) were obtained from Janssen Pharmaceutica, Beerse, Belgium and were stored as frozen aliquots (˜20 μl) and thawed as required.
Typically 12.5 μl of assay buffer was dispensed to rows B to P of the assay plate. To row A was added 18.75 μl of test compound diluted appropriately in assay buffer. A 6.25 μl aliquot of sample was transferred from row A to row B and the sample mixed three times by pipette. The process was repeated down the plate and 6.25 μl of solution discarded at row N post-mix. Rows O and P were designated as the positive and negative controls. To row P was added 6.25 μl base buffer. To rows A to O was added 6.25 μl enzyme (freshly prepared 40 nM BACE1 or 40 nM BACE2) diluted in base buffer. To initiate the assay 6.25 μl of freshly prepared 80 μM substrate, made up by diluting the 1 mM in 100% DMSO solution into HPLC grade water (Optima W6-212; ThermoFisher), was added to all the wells. The assay plate was covered and incubated at 37±1° C. for 60 min. The fluorescence intensity of the wells was read at 360/405 nm (excitation/emission) utilising a nine reads per well protocol (50 ms integration; density of 3, 0.25 mm spacing; SpectraMAX Paradigm plate reader; TUNE cartridge; SoftMax Pro v 6.3 software; Molecular Devices UK Ltd., Wokingham, Berkshire, UK) and outputting the median value of the nine reads as a text file. Data analysis was carried out using Prism software v 6.3 (GraphPad Inc., San Diego, Calif., USA) using the non-linear regression analysis models supplied by the vendor. For IC50 determinations the four parameter logistic variable slope model was used to fit the raw fluorescence intensity data with the ‘bottom’ fixed to the negative control.
The CyclOps bioassay module consisted of a fraction collection station, a reagent station, liquid handling robotics, plate store and an integrated plate reader (SpectraMAX Paradigm, TUNE cartridge, SoftMax Pro v 6.3; Molecular Devices). The fraction collection station composed of a 384 well collection plate (P-384-240SQ-C; Axygen, Union City, Calif., USA) mounted on a H-portal carriage (Festo AG & Co. KG, Esslingen, Germany), a syringe drive and a two-way six port injection valve fitted with a 200 μl loop (VICI AG International, Schenkon Switzerland). The output of the injection valve was addressable to all the positions of a 384 well collection plate. The reagent station consisted of hydraulically cooled (10-12° C.) aluminium segments; each manufactured to house a SBS microtiter plate footprint. Independent addressable reagent stations were housed within these sections. Where required, custom aluminium housings were used to accommodate standard laboratory plastic ware (e.g. Eppendorf tubes, Falcon tubes, etc.). As and when required the reagent reservoirs were covered and the lids contained holes through which the Teflon-coated probe could access solutions. […]

BIOCHEMICAL FRET BASED ASSAY pIC50 (BACE1)	AUTOMATED ASSAY BACE2 pIC50 (β-secretase II (BACE2))	BIOCHEMICAL FRET BASED ASSAY pIC50 (BACE1; tested form: free base)	AUTOMATED ASSAY BACE2 pIC50 (β-secretase II (BACE2); tested form: free base)	BIOCHEMICAL FRET BASED ASSAY pIC50 (BACE1; tested form: formate)	SMILES
7.83	6.18				COc1ncc(-c2c(C)noc2C)c2c1C[C@]1(c3ccc(F)cc3F)N=C(N)SC[C@@H]1C2
	6.21			6.94	COc1ncc(-c2c(C)noc2C)c2c1C[C@]1(c3cc(OCC4CCOCC4)ccc3F)N=C(N)SC[C@@H]1C2
7.3	6.24				COc1ccccc1-c1cnc(OC)c2c1C[C@H]1CSC(N)=N[C@@]1(c1ccc(F)cc1F)C2
	6.29			7.86	COc1ncc(-c2ccc(F)cc2C)c2c1C[C@]1(c3cc(OCC4CCOCC4)ccc3F)N=C(N)SC[C@@H]1C2

The remaining lines, values behind:

SMILES	BIOCHEMICAL FRET BASED ASSAY pIC50 (BACE1)	AUTOMATED ASSAY BACE2 pIC50 (β-secretase II (BACE2))	BIOCHEMICAL FRET BASED ASSAY pIC50 (BACE1; tested form: free base)	AUTOMATED ASSAY BACE2 pIC50 (β-secretase II (BACE2); tested form: free base)	BIOCHEMICAL FRET BASED ASSAY pIC50 (BACE1; tested form: formate)
COc1ccc(F)c(-c2cnc(OC)c3c2C[C@H]2CSC(N)=N[C@@]2(c2ccc(F)cc2F)C3)c1			8.22	6.68	
COc1ncc(-c2c(C)noc2C)c2c1C[C@]1(c3cc(OCc4ncccn4)ccc3F)N=C(N)SC[C@@H]1C2		6.02			7.44
COc1ncc(-c2c(C)noc2C)c2c1C[C@]1(c3cc(OCC4CC4)ccc3F)N=C(N)SC[C@@H]1C2		6.19			5.91
COc1ncc(-c2cc(C)nc3c2CCCC3)c2c1C[C@]1(c3ccc(F)cc3F)N=C(N)SC[C@@H]1C2	6.6	5.74			
